From BindingDB's records for 15780631 (Universit&#224, 2005)
pKi: −log10 of the molar value. Some compounds may have been tested in ways that are not shown here.

The chains behind the UniProt entries cited, without tags or fusion partners. Residues count along the entry.
UniProt P35218, 39-305 limits assumed: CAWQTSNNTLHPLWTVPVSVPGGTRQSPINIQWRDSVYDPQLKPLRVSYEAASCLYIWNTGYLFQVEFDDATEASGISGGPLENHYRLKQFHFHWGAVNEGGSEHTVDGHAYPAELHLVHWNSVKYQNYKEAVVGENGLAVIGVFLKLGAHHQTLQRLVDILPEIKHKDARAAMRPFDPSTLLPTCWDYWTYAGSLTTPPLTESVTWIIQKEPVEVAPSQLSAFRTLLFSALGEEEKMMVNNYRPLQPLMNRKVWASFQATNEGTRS
UniProt P00915, 2-261 limits assumed: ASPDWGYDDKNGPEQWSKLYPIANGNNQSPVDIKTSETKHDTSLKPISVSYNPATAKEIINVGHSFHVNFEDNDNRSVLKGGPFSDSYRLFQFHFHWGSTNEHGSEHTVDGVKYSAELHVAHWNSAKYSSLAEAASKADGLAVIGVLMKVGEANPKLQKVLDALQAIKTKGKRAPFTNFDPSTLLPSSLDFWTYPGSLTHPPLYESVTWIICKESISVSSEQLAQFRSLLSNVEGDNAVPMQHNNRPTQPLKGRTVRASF
UniProt P22748, 19-284 limits assumed: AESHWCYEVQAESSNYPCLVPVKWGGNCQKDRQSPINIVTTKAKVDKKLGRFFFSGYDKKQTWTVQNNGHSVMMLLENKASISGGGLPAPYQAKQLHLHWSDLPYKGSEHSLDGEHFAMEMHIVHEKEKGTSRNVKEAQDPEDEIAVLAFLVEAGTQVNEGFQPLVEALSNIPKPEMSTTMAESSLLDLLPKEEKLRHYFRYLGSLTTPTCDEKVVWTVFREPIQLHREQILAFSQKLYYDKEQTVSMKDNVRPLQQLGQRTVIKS

How the values were obtained:
Carbonic anhydrase 2 = Carbonic anhydrase 2 (Homo sapiens, UniProt P00918); assay: Inhibitory constant against human isozymes carbonic anhydrase II for the CO2 hydration reaction at 20 C
[1] = biological target: Carbonic anhydrase 5A, mitochondrial (Homo sapiens, UniProt P35218); assay: Inhibitory constant against human isozymes carbonic anhydrase V for the CO2 hydration reaction at 20 C
Carbonic anhydrase 1 = Carbonic anhydrase 1 (Homo sapiens, UniProt P00915)
Carbonic anhydrase 9 = Carbonic anhydrase 9 (Homo sapiens, UniProt Q16790); assay: Inhibitory constant against human isozymes carbonic anhydrase IX for the CO2 hydration reaction at 20 C
Carbonic anhydrase 4 = Carbonic anhydrase 4 (Homo sapiens, UniProt P22748); assay: Inhibitory constant against human isozymes carbonic anhydrase IV for the CO2 hydration reaction at 20 degree C

SMILES: N#[C][Pd-2]([C]#N)([C]#N)[C]#N
- pKi (Carbonic anhydrase 2): 2.91
- pKi [1]: 2.70
- pKi (Carbonic anhydrase 1): 2.90
- pKi (Carbonic anhydrase 9): 3.05
- pKi (Carbonic anhydrase 4): 2.77
